By Kd is commonly meant the free concentration of one partner at which half of the binding sites on the other are occupied at equilibrium, for simple one-to-one binding.

One experiment has as its target hisTRIM7-PRYSPRY R385A (Homo sapiens, UniProt Q9C029, R385A). Conditions: ITC, 25 °C, TRIM7 20 µM, peptide 400 µM; NB = no binding. In general terms: Isothermal titration calorimetry measures the heat released or taken up as one component is titrated into another.
A further experiment addresses human hisTRIM7-PRYSPRY (Homo sapiens, UniProt Q9C029). As to the kind of experiment: ITC binding to human TRIM7 PRYSPRY (wild type). To be noted: for N (stoichiometry): for hGYG1-GN1 (**) concentration of GYG1 dimer used in the analysis.
A further experiment deals with hisTRIM7-PRYSPRY N383A (Homo sapiens, UniProt Q9C029, N383A). Conditions: ITC, 25 °C, TRIM7 20 µM, peptide 400 µM; NB = no binding.
The next experiment concerns the target hisTRIM7-PRYSPRY T384A (Homo sapiens, UniProt Q9C029, T384A). As to the kind of experiment: biochemical. The class given is binding.
The target of a further experiment is hisTRIM7-PRYSPRY L423A (Homo sapiens, UniProt Q9C029, L423A). To be noted: ITC, 25 °C, TRIM7 20 µM, peptide 400 µM; NB = no binding; * potential weak binding with KD estimated >100 µM.
Another experiment has as its target hisTRIM7-PRYSPRY F426A (Homo sapiens, UniProt Q9C029, F426A). Conditions: ITC, 25 °C, TRIM7 20 µM, peptide 400 µM; NB = no binding.
The target in a further experiment is hisTRIM7-PRYSPRY Q436A (Homo sapiens, UniProt Q9C029, Q436A). Conditions: ITC, 25 °C, TRIM7 20 µM, peptide 400 µM; NB = no binding.
The target in another experiment is hisTRIM7-PRYSPRY N438A (Homo sapiens, UniProt Q9C029, N438A). As to the kind of experiment: biochemical. It is filed as binding.

SMILES strings stand for the structures. Like-named read-outs stand apart in the source and are kept apart here.

Turning to `CC(C)C[C@H](NC(=O)[C@H](C)NC(=O)[C@H](CCC(=O)O)NC(=O)[C@@H](N)CC(C)C)C(=O)N[C@@H](CCC(=O)O)C(=O)N[C@@H](Cc1ccccc1)C(=O)N[C@@H](CCC(N)=O)C(=O)O` [MNV1-NS61172-1178], the KD result on hisTRIM7-PRYSPRY R385A is given as “No binding”. The Kd on hisTRIM7-PRYSPRY R385A is more than 100 µM; at human hisTRIM7-PRYSPRY, 8.7 ± 3.2 µM. Moreover, the DH at human hisTRIM7-PRYSPRY (ITC, 25 °C, TRIM7 20 µM) is -11.7 ± 2.25 kcal/mol. Further, the “N (stoichiometry)” value at human hisTRIM7-PRYSPRY (ITC, 25 °C) was 1.13±1.62.
On to `CC(C)C[C@H](NC(=O)CNC(=O)[C@H](Cc1ccccc1)NC(=O)[C@H](CC(=O)O)NC(=O)[C@H](CC(=O)O)NC(=O)[C@@H](N)Cc1c[nH]cn1)C(=O)N[C@@H](CCC(N)=O)C(=O)O` [MNV1-NS3700-706], for which the dissociation constant Kd was more than 100 µM on hisTRIM7-PRYSPRY R385A and 14.7 ± 4.3 µM on human hisTRIM7-PRYSPRY.
At human hisTRIM7-PRYSPRY (ITC, one-site model, 25 °C, 150 mM NaCl, 50 mM Tris pH 8, 1 mM DTT, 0-1% DMSO, TRIM7 20 µM, ligand 400 µM (Ac-LQ, Ac-LLQ 800 µM; LQ 2000 µM), NB = no binding), `CC[C@H](C)[C@H](NC(=O)[C@@H](N)[C@@H](C)O)C(=O)N[C@@H](CCC(=O)O)C(=O)N[C@@H](C)C(=O)N[C@@H](CC(C)C)C(=O)N[C@@H](Cc1ccccc1)C(=O)N[C@@H](C)C(=O)O` [TIEALFA] registered a Kd of more than 100 µM.
Consider `C[C@H](N)C(=O)N[C@@H](C)C(=O)N[C@@H](C)C(=O)N[C@@H](C)C(=O)N[C@@H](C)C(=O)N[C@@H](C)C(=O)N[C@@H](C)C(=O)O` [polyA], for which, at human hisTRIM7-PRYSPRY (pH 8), the KD entry is listed as “no binding” and the Kd is more than 100 µM.
Turning to `CC[C@H](C)[C@H](NC(=O)[C@@H](N)[C@@H](C)O)C(=O)N[C@@H](CCC(=O)O)C(=O)N[C@@H](C)C(=O)N[C@@H](CC(C)C)C(=O)N[C@@H](Cc1ccccc1)C(=O)N[C@@H](CCC(N)=O)C(=O)O` [CVB-2C208-214], the KD entry at hisTRIM7-PRYSPRY N383A, on hisTRIM7-PRYSPRY R385A, on hisTRIM7-PRYSPRY L423A, at hisTRIM7-PRYSPRY F426A and on hisTRIM7-PRYSPRY Q436A was “No binding” in each case. Also, the Kd is more than 100 µM on hisTRIM7-PRYSPRY N383A; 21.2 ± 5.84 µM at hisTRIM7-PRYSPRY T384A; more than 100 µM at hisTRIM7-PRYSPRY R385A; more than 100 µM at hisTRIM7-PRYSPRY L423A; more than 100 µM on hisTRIM7-PRYSPRY F426A; more than 100 µM at hisTRIM7-PRYSPRY Q436A. Moreover, the Kd on hisTRIM7-PRYSPRY N438A was 7.82 ± 1.18 µM; on human hisTRIM7-PRYSPRY, 11.2 ± 4.2 µM. In addition, the DH at hisTRIM7-PRYSPRY T384A (ITC, 25 °C, N fixed to 1) was -6.12 ± 0.704 kcal/mol; on hisTRIM7-PRYSPRY N438A (ITC, 25 °C) it was -10.4 ± 0.91 kcal/mol; on human hisTRIM7-PRYSPRY (ITC, 25 °C, TRIM7 20 µM) it was -12.6 ± 3.58 kcal/mol. In addition, the “N (stoichiometry)” value came out at 0.92±0.06 on hisTRIM7-PRYSPRY N438A (ITC, 25 °C) and 0.90±0.2 at human hisTRIM7-PRYSPRY (ITC, 25 °C).
